Antibody variant affinities, Ab-14 heavy chain, assay B

Source: Li et al. 2023 (doi:10.1038/s41467-023-39022-2), MIT Lincoln Laboratory and A-Alpha Bio; data file from the FLAb repository.

Target peptide (SARS-CoV-2 spike, HR2 region): PDVDLGDISGINAS

Parent: Ab-14, a human scFv built as VH, three GGGGS repeats, VL. Only the CDRs of the heavy chain vary.
VH: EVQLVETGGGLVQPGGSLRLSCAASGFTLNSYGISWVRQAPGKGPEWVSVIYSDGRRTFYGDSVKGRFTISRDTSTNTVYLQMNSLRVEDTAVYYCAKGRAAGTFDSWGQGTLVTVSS
VL: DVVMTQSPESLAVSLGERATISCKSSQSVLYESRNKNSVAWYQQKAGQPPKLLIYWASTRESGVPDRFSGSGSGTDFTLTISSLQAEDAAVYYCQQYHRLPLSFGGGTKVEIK

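The starting antibody came from a phage panning campaign against this peptide. The variants were designed computationally from a first round of random CDR variants and then made and measured. Several design methods are mixed in this list. Affinity was read by AlphaSeq, a pooled yeast mating assay with surface-displayed partners. Pairs that bind mate more often; barcode pairs of the diploids are counted by sequencing. The ratio of observed to expected reads was calibrated, replicate by replicate, on BCL2-family standards whose Kd was known from biolayer interferometry. Each pool was mated in six replicate cultures.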

Sequences are complete VH domains.
This list holds designs with more than six substitutions.
Each Kd is an estimate from the mating assay, the geometric mean of the replicates in which the pair was seen; lower is stronger.
"nd" marks a missing value. The strain was present, yet no cells mated with the target were sequenced in any replicate, which points to weak or no binding.
The parent sequence was in this pool as ten entries: three were never detected, three once, and four in most replicates, with averages from 2.2 nM to 240 nM.
Background: pairings of all heavy chain designs with three empty control strains gave a value in 1% of cases (median 120 nM, 5th percentile 7.0 nM). Values in that range, when seen in few replicates, are hard to tell from nonspecific mating. The control count says in how many pairings with the empty strains this scFv gave a signal.
In the paper, a design with two or fewer of six values counts as a poor binder.
The range of this assay differs from that of the first round, and the authors advise against merging the two.

- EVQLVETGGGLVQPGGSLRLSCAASGFDLDEYGISWVRQAPGKGPEWVSVIYADGKRTFYQDSVKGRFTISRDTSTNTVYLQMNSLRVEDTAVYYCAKGNVAGTFDVWGQGTLVTVSS -> 340 pM (6 of 6 replicates; controls 0 of 18)
- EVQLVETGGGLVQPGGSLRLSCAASGFDLEEFGISWVRQAPGKGPEWVSVIYADGTRTMYLPTVKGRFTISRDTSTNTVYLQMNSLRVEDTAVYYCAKGVNGGTFQMWGQGTLVTVSS -> nd (0 of 6 replicates; controls 0 of 18)
- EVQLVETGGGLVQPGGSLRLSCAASGFDLNEYGISWVRQAPGKGPEWVSVIYADGVRTQYADSVKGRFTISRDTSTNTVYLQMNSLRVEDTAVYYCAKGNVAGTFDLWGQGTLVTVSS -> 360 pM (6 of 6 replicates; controls 0 of 18)
- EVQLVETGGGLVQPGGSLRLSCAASGFDLNEYGVSWVRQAPGKGPEWVSVIYADGQRRAYAANFKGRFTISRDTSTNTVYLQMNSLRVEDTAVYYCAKGVNVGGLDIWGQGTLVTVSS -> nd (0 of 6 replicates; controls 0 of 18)
- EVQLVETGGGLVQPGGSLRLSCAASGFDLNEYGISWVRQAPGKGPEWVSVIYADGRRTAYIDSVKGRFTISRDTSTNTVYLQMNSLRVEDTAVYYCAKGEQAGTFDLWGQGTLVTVSS -> 330 pM (6 of 6 replicates; controls 0 of 18)
- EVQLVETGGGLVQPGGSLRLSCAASGFDLNEYGISWVRQAPGKGPEWVSVIYADGMRTAYADSVKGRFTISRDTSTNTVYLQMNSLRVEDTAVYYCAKGHNAGTFDVWGQGTLVTVSS -> 1.2 nM (6 of 6 replicates; controls 0 of 18)
- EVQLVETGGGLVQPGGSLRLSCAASGFDLNEYGISWVRQAPGKGPEWVSVIYADGVRTFYVDSVKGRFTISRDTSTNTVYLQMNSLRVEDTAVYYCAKGETAGTFDTWGQGTLVTVSS -> 270 pM (6 of 6 replicates; controls 1 of 18)
- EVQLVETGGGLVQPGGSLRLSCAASGFDLNEYGISWVRQAPGKGPEWVSVIYADGMRTFYADSVKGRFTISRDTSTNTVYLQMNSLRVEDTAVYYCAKGNAAGTFNVWGQGTLVTVSS -> 130 pM (6 of 6 replicates; controls 0 of 18)
- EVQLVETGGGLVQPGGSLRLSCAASGFDLDEYGISWVRQAPGKGPEWVSVIYADGMRTAYTDSVKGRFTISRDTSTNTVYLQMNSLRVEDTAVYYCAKGENAGTFDQWGQGTLVTVSS -> 25 pM (4 of 6 replicates; controls 0 of 18)
- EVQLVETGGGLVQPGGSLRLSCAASGFDLNEYGISWVRQAPGKGPEWVSVIYADGRRTAYADDVKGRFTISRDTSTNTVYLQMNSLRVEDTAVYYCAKGENAGTFDVWGQGTLVTVSS -> nd (0 of 6 replicates; controls 0 of 18)
- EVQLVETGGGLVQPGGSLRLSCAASGFDLNEYGISWVRQAPGKGPEWVSVIYADGKRTAYADDVKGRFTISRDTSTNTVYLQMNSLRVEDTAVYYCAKGTNAGTFDVWGQGTLVTVSS -> 430 pM (6 of 6 replicates; controls 0 of 18)
- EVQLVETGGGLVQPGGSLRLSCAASGNTLDEYGISWVRQAPGKGPEWVSVIYADGSRMAYADKFKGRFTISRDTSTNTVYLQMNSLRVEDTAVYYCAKGMDVGTFDQWGQGTLVTVSS -> nd (0 of 6 replicates; controls 1 of 18)
- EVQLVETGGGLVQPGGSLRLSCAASGFDLDEYGISWVRQAPGKGPEWVSVIYADGRRTAYSDSVKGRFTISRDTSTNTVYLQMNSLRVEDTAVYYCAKGNVAGTFDMWGQGTLVTVSS -> 410 pM (6 of 6 replicates; controls 0 of 18)
- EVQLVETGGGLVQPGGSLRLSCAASGFNLNEYGISWVRQAPGKGPEWVSVIYADGRRTFYADSVKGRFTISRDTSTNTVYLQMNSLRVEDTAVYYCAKGEHAGTFDVWGQGTLVTVSS -> 200 pM (6 of 6 replicates; controls 0 of 18)